One series relates to HSV-2. The settings on record: in general 1000-fold less drug than Examples 1-6 and 10.
A further series deals with HSV-1. The settings on record: in general 1000-fold less drug than Examples 1-6 and 10.

On to `OC[C@H]1O[C@@H]2O[C@H]3[C@H](O)[C@@H](O)[C@@H](O[C@H]4[C@H](O)[C@@H](O)[C@@H](O[C@H]5[C@H](O)[C@@H](O)[C@@H](O[C@H]6[C@H](O)[C@@H](O)[C@@H](O[C@H]7[C@H](O)[C@@H](O)[C@@H](O[C@H]8[C@H](O)[C@@H](O)[C@@H](O[C@H]1[C@H](O)[C@H]2O)O[C@@H]8CO)O[C@@H]7CO)O[C@@H]6CO)O[C@@H]5CO)O[C@@H]4CO)O[C@@H]3CO` [BCD, β-cyclodextrin], for which the “SI = CC50/EC50” value with Rhino, in the series with Punta Toro, with Flu A, with Measles, with Pichinde and in the series with VZV was 0 throughout. Moreover, the “SI = CC50/EC50” value in the series on Ad, with HHV-6, with HCMV, in the series with HSV-2, with HRV and in the series on PIV was 0 each time. Further, the “SI = CC50/EC50” value in the series with EBV, in the series on HHV-7, in the series with Resp syncytial, in the series with RSV, in the series with HSV-1 and in the series on Flu B was 0 in each case. Also, the “SI = CC50/EC50” value in the series on MCMV came out at 0.
As to `CC(O)COC[C@H]1O[C@@H]2O[C@H]3[C@H](O)[C@@H](O)[C@@H](O[C@H]4[C@H](O)[C@@H](O)[C@@H](O[C@H]5[C@H](O)[C@@H](O)[C@@H](O[C@H]6[C@H](O)[C@@H](O)[C@@H](O[C@H]7[C@H](O)[C@@H](O)[C@@H](O[C@H]8[C@H](O)[C@@H](O)[C@@H](O[C@H]1[C@H](O)[C@H]2O)O[C@@H]8COCC(C)O)O[C@@H]7COCC(C)O)O[C@@H]6COCC(C)O)O[C@@H]5COCC(C)O)O[C@@H]4COCC(C)O)O[C@@H]3COCC(C)O` (stereo partly drawn) [HPBCD, hydroxypropyl β-cyclodextrin], the “SI = CC50/EC50” value in the series with EBV is more than 625.

The record behind these values is patent US20070219159A1, “CYCLODEXTRIN COMPOSITIONS AND METHODS OF TREATING VIRAL INFECTIONS” (priority 2002, published 2007).
